# AlphaSeq binding of Ab-91 heavy chain variants to a spike HR2 peptide

The target is the same throughout: PDVDLGDISGINAS, from the HR2 region of SARS-CoV-2 spike.

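Phage display of a naive human antibody library on the peptide gave the parent. The library (AAYL51) carries one to three amino acid substitutions per variant, with no insertions or deletions. AlphaSeq pools MATa yeast showing the antibodies with MATalpha yeast showing the peptide. Mating (16 h, 30 °C) was followed by selection of diploids and sequencing of their barcodes. Each replicate has its own calibration line, from reference interactions of the BCL2 family. There are three technical replicates.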

Parent: Ab-91, a human scFv built as VL, the linker GGGGSGGGGSGGGGS, VH. Only the CDRs of the heavy chain vary.
VL: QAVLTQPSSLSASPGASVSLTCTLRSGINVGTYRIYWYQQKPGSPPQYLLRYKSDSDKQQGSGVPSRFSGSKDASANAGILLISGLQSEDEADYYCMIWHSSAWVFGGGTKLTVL
VH: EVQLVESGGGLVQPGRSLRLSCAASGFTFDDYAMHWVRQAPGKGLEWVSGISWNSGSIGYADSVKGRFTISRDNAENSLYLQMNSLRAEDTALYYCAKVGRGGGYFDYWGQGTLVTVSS

Positions count from residue 1 of the parent VH; D30R puts R in place of D.
All variants listed here change S57 of the VH, counted from its first residue.
Kd is apparent (estimated from mating counts) and averaged on the log scale over replicates with a signal. Smaller is tighter.
A pair that was not seen in any replicate is written "nd"; this usually means weak binding, but a binder can also be missed.
Order: sorted from the lowest average up, undetected variants last.

With D30R/S57M/A61M the result was 46 nM (3 of 3 replicates; controls 4 of 9). Variant D30M/S57G gave 83 nM (3 of 3 replicates; controls 2 of 9). Variant T28E/S57F/R101W gave 610 nM (3 of 3 replicates; controls 6 of 9). Variant F29A/S57P showed 970 nM (2 of 3 replicates; controls 2 of 9). For S57M/G102A/G104P, the assay gave 2.1 µM (1 of 3 replicates; controls 1 of 9). Variant S57C/R101G/D107T gave 2.8 µM (2 of 3 replicates; controls 0 of 9). For D30W/S57H, the assay gave 5.5 µM (3 of 3 replicates; controls 9 of 9). Variant N54S/G56Q/S57A showed 7.7 µM (3 of 3 replicates; controls 3 of 9). With S57L/Y60P/G100R the result was 8.5 µM (1 of 3 replicates; controls 0 of 9).

For T28Q/W53I/S57L, the assay gave 13 µM (2 of 3 replicates; controls 0 of 9). Variant Y32H/S52Q/S57K gave 14 µM (1 of 3 replicates; controls 3 of 9). Variant S55R/S57W/D62E gave 15 µM (2 of 3 replicates; controls 2 of 9). With F29P/D30Y/S57G the result was 18 µM (2 of 3 replicates; controls 2 of 9). Variant I51R/S57H/G100S showed 20 µM (1 of 3 replicates; controls 5 of 9). Variant S57F/G59Q/G103F showed 39 µM (2 of 3 replicates; controls 0 of 9). For D31Y/S55M/S57H, the assay gave 86 µM (1 of 3 replicates; controls 0 of 9). With H35T/S57K/D107G the result was 88 µM (1 of 3 replicates; controls 5 of 9). With G26D/S57H the result was 110 µM (2 of 3 replicates; controls 3 of 9).

For S52Y/S57E/G104E, the assay gave 240 µM (2 of 3 replicates; controls 4 of 9). With S52P/W53P/S57E the result was 240 µM (1 of 3 replicates; controls 1 of 9). Variant F27W/S57F/V99Y showed 240 µM (2 of 3 replicates; controls 5 of 9). Variant D31C/I51R/S57A gave nd (0 of 3 replicates; controls 3 of 9). Variant T28G/F29R/S57D gave nd (0 of 3 replicates; controls 2 of 9). For G26A/S57K/Y108N, the assay gave nd (0 of 3 replicates; controls 2 of 9). Variant S57R showed nd (0 of 3 replicates; controls 2 of 9). With S57Y/A61R/V99F the result was nd (0 of 3 replicates; controls 1 of 9). Variant F27N/S57N/K65W gave nd (0 of 3 replicates; controls 0 of 9).

Variant H35T/N54W/S57M showed nd (0 of 3 replicates; controls 1 of 9). With F27I/S52E/S57G the result was nd (0 of 3 replicates; controls 2 of 9). Variant G26Y/H35R/S57F showed nd (0 of 3 replicates; controls 0 of 9). With S57V/A61E/G102F the result was nd (0 of 3 replicates; controls 0 of 9). Variant F29E/S57R/F106Q showed nd (0 of 3 replicates; controls 0 of 9). For S52D/G56V/S57Y, the assay gave nd (0 of 3 replicates; controls 1 of 9). Variant I51H/S57Y/Y60W showed nd (0 of 3 replicates; controls 1 of 9).

Top 3 of the variants detected in all replicates, tightest first:

{"changes": "D30R/S57M/A61M", "Kd": "46 nM", "seen in": "3 of 3", "signal with controls": "4 of 9"}
{"changes": "D30M/S57G", "Kd": "83 nM", "seen in": "3 of 3", "signal with controls": "2 of 9"}
{"changes": "T28E/S57F/R101W", "Kd": "610 nM", "seen in": "3 of 3", "signal with controls": "6 of 9"}

Parent in this assay: reference entry 72 nM, copy in this library 7.5 nM.
Nonspecific signal, from three strains lacking the peptide, appeared in 21% of pairings of library AAYL51, centred on 34 µM (5% of these signals below 1.8 µM); values are not corrected for it. Also given: how often the same scFv was detected with the empty control strains.

Data: MIT Lincoln Laboratory AlphaSeq set, Engelhart et al. 2022, doi:10.1038/s41597-022-01779-4, as distributed in FLAb.